Earlier results on one compound are cited in PubChem BioAssay AID1811 (Shanghai Institute of Organic Chemistry, 2009).

The other results are listed elsewhere or left out. The source made the active and inactive calls. Where no limit is named, active and inactive come without a cut-off here.

The test system of this data set is fiber protein. In words: PubChem AID 1811. Conditions: PDB complex binding affinities from literature.

On to `CC(=O)N[C@H]1[C@H]([C@H](O)[C@H](O)CO)O[C@@](O[C@@H]2[C@@H](O)[C@H](O)O[C@H](CO)[C@@H]2O)(C(=O)O)C[C@@H]1O`, for which the compound was classed as active.
